Tests used:
[1] = Serum stability, anti-fungal activity after serum incubation by radial diffusion bioassay; format: in vitro ADME, rat or human serum
Protocol: (§1) For these serum stability experiments, peptides were prepared by solid phase peptide sythesis and purified to 94% or greater purity as described in Example 1. Blood was collected from metaphane anesthesized rats by aortic bleed into Vacutainer™ tubes and allowed to clot at room temperature for approximately 30 minutes, then centrifuged at 3000 rpm (about 1000×g) for 10 minutes at room temperature and the serum aspirated. In addition, frozen human serum (North American Biologics, Inc., Miami, Fla., cat. no. 2140, lot no. 94115) was thawed at room temperature and filtered through a 0.45 μm membrane before use.
(§2) A 1 mg/mL solution of an exemplary XMP peptide to be tested was added to an equal volume of either rat or human serum described above and maintained at 37° C. At 0, 1, 2, and 4 hours, 100 μL were removed and processed by solid phase extraction for HPLC analysis as follows. Serum samples were prepared for HPLC using C-18 Sep-Pak cartridges (1 mL cartridge with 100 mg of sorbent, Waters Corp., Milford, Mass.). One hundred μL of serum sample were added to an equal volume of 1% TFA and mixed for 30 seconds on a Vortex mixer. The sample was then applied to a C-18 Sep-Pak cartridge that had been conditioned by washing with 1 mL of methanol followed by 1 mL Milli-Q water. Weakly reed components were eluted by washing with 1 mL of 0. 1% TFA. The bound peptide was eluted with two volumes of 250 μL 80% acetonitrile/0.065% TFA.
The peptides identified and purified after serum incubation as described above were subjected to N-terminal peptide sequencing performed on an Applied Biosystems Model 477A/120A sequencer and to electrospray ionization mass spectrometry (ESI/MS) performed using a VG Biotech Bio-Q Mass Spectrometer. In addition, the peptides identified and purified after serum incubation as described above were also tested for their anti-fungal activity in a radial diffusion bioassay with Candida albicans SLU-1 strain as described in Example 2.

[2] = tested on: C. albicans (CA-1, Strain SLU-1); assay: Radial diffusion assay; format: cell-based, Candida albicans; conditions: for C. albicans pmol/30 mm^2 zone: pmoles of peptide added to well to achieve a 30 mm^2 zone, PROBIT analysis, crude or purified (P′) peptide; for activity in radial diffusion: restated from Table 1
Outline: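 Peptides, serially diluted 2-fold in D-PBS (top ~1 mg/mL), diffused 3 h at 37° C into pH 7.4 phosphate-buffered agarose seeded with 1×10^6 CFU/mL yeast, before overnight growth under a 6% Sabouraud overlayer. Net inhibition zones measured after Coomassie staining; PROBIT fit of log pmol vs area gave pmol for 30 mm^2.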

[3] = in vitro; format: in vitro ADME, rat or human serum
Protocol: as §1, §2
The material eluted from the Sep-Pak cartridge was analyzed on a Michrom Ultaafast Microprotein Analyzer equipped with a 150 mm×1 mm, 5μ particle, 300 Å pore C-8 Zorbax column. The column oven was set to 40° C., the flow rate was 100 μL/minute, and injection volumes were typically 5-10 μL. HPLC was performed using 5% acetonitrile/0.1% TFA in water as mobile phase A, and 80% acetonitrile/0.065% TFA as mobile phase B. The eluate was monitored spectiophotometrically at 214 nm. Peptide standards were dissolved in mobile phase A at 0. 1 mg/mL. The gradient was 25-35% B/10 minutes followed by a 5 minute wash step of 100% B and reequilibration at 25% B for 10 minutes.

[4] = tested on: Crytococcus Neoformans 13690; format: cell-based, Cryptococcus neoformans
Protocol: (§3) In additional experiments, a fluorescence-activated cell sorter (FACS) based assay was developed to test the fungicidal activity of the peptides. […] Difco) agar. Several colonies were picked from the agar plate and inoculated into 5 mL of Sabouraud's Dextrose media in a sterile 10 mL polypropylene tube. The fungal cultures were incubated for about 18 hours at 30° C. […] The culture were centrifuged at 3000 rpm for 5 minutes (Sorvall RT 6000B). After centrifugation, the supernatant was decanted leaving the fungal pellets in the centrifuge tubes. The pellets were resuspended in 15 mL of SDB. Both suspensions were combined into one tube and mixed to generate a stock culture. […] After determining the concentration of the stock, appropriate dilutions were made with Sabouraud's Dextrose media to obtain 100 mL of 1×10^6 cell/mL. […] After the 1 hour incubation, all the tubes were centrifuged at 3000 rpm for 5 minutes. […] Louis, Mo.) in Dulbecco's PBS (DPBS, GIBCO, Grand Island, N.Y.) except the autofluorescence control, which was resuspended in DPBS alone. The tubes were mixed and incubated in the dark at room temperature for at least 20 minutes. […] The settings were adjusted appropriately to the following approximate parameters: Cells were analyzed (10,000 cells/tube) and their respective fluorescence determined. […] The population of dead (i.e., propidium iodide stained) fungal cells was determined by a fluorescence threshold between the negative control and positive control.

[5] = tested on: Candida glabrata; format: cell-based
Protocol: as §3

[6] = tested on: Candida lusitaniae; format: cell-based
Protocol: as §3

[7] = serum, 37° C., serum; read-out: serum half-life of peptide by HPLC
[8] = serum, half-life of peptide in serum as detected by HPLC analysis; read-out: HPLC Peptide in Serum t ½ (converted)

Structure (SMILES)	half-life at 0.5 mg/mL ([1]; Activity in Serum t ½ (hr.))	C. albicans pmol/30 mm^2 zone [2]	half-life at 0.5 mg/mL [3, 8]	Activity of Peptides on Crytococcus Neoformans 13690, IC50 [4]	Candida glabrata IC50 [5]	Candida lusitaniae IC50 [6]	further results
CC[C@H](C)[C@H](NC(=O)[C@H](CC(C)C)NC(=O)[C@H](Cc1c[nH]c2ccccc12)NC(=O)[C@H](CCCCN)NC(=O)[C@@H](NC(=O)[C@H](CCCCN)NC(=O)[C@H](CO)NC(=O)[C@@H](N)CCCCN)C(C)C)C(=O)N[C@@H](CCC(N)=O)C(=O)N[C@@H](CC(C)C)C(=O)N[C@@H](Cc1ccccc1)C(=O)N[C@@H](Cc1c[nH]cn1)C(=O)N[C@@H](CCCCN)C(=O)N[C@@H](CCCCN)C(N)=O [XMP.97]	22.7 h	213 pmol/30 mm^2 zone	1 h				C. albicans pmol/30 mm^2 zone ([2]; listed as XMP.97P′): 303.5 pmol/30 mm^2 zone; half-life at 0.5 mg/mL [3, 7]: 0.983 h
CC[C@H](C)[C@H](NC(=O)[C@H](CC(C)C)NC(=O)[C@H](Cc1ccccc1)NC(=O)CNC(=O)[C@@H](NC(=O)[C@H](CCCCN)NC(=O)[C@H](CO)NC(=O)[C@@H](N)CCCCN)C(C)C)C(=O)N[C@@H](CCC(N)=O)C(=O)N[C@@H](CC(C)C)C(=O)N[C@@H](Cc1ccccc1)C(=O)N[C@@H](Cc1c[nH]cn1)C(=O)N[C@@H](CCCCN)C(=O)N[C@@H](CCCCN)C(N)=O [XMP.127]		226 pmol/30 mm^2 zone					C. albicans pmol/30 mm^2 zone ([2]; listed as XMP.127P′): 935 pmol/30 mm^2 zone
CC[C@H](C)[C@H](NC(=O)[C@H](CC(C)C)NC(=O)[C@H](Cc1c[nH]c2ccccc12)NC(=O)[C@H](CCCCN)NC(=O)[C@@H](N)CCCCN)C(=O)N[C@@H](CCC(N)=O)C(=O)N[C@@H](CC(C)C)C(=O)N[C@@H](CCCCN)C(=O)N[C@@H](CCCCN)C(N)=O [XMP.327]	2.7 h	353 pmol/30 mm^2 zone	1.1 h				half-life at 0.5 mg/mL ([1]; serum half-life as determined by anti-fungal activity in the radial diffusion assay): 0.717 h; C. albicans pmol/30 mm^2 zone ([2]; listed as XMP.327P′): 630 pmol/30 mm^2 zone; activity in radial diffusion [2]: 353 pmol; half-life at 0.5 mg/mL [3, 7]: 0.667 h
CC[C@H](C)[C@H](NC(=O)[C@H](CC(C)C)NC(=O)[C@H](Cc1c[nH]c2ccccc12)NC(=O)[C@H](CCCCN)NC(=O)[C@H](CCCCN)NC(C)=O)C(=O)N[C@@H](CCC(N)=O)C(=O)N[C@@H](CC(C)C)C(=O)N[C@@H](CCCCN)C(=O)N[C@@H](CCCCN)C(N)=O [XMP.331]		b (No detectable activity up to 5 μg/well)	4 h				C. albicans pmol/30 mm^2 zone ([2]; listed as XMP.331P′): >3,493 pmol/30 mm^2 zone; activity in radial diffusion [2]: > 3,493 pmol; half-life at 0.5 mg/mL ([3]; 37° C., serum; read-out: serum half-life of peptide by HPLC): 4.67 h
CC[C@H](C)[C@H](NC(=O)[C@H](CC(C)C)NC(=O)[C@H](Cc1c[nH]c2ccccc12)NC(=O)[C@@H](CCCCN)NC(=O)[C@H](N)CCCCN)C(=O)N[C@@H](CCC(N)=O)C(=O)N[C@@H](CC(C)C)C(=O)N[C@H](CCCCN)C(=O)N[C@H](CCCCN)C(N)=O [XMP.342]		1,591 pmol/30 mm^2 zone	5.2 h	0.95 µg/mL	11.00 µg/mL	3.24 µg/mL	C. albicans pmol/30 mm^2 zone ([2]; listed as XMP.342P′): 97 pmol/30 mm^2 zone
CC[C@@H](C)[C@@H](NC(=O)[C@@H](CC(C)C)NC(=O)[C@@H](Cc1c[nH]c2ccccc12)NC(=O)[C@H](N)CCCCN)C(=O)N[C@H](CCC(N)=O)C(=O)N[C@H](CC(C)C)C(=O)N[C@H](Cc1ccccc1)C(=O)N[C@H](Cc1c[nH]cn1)C(=O)N[C@H](CCCCN)C(=O)N[C@H](CCCCN)C(N)=O [XMP.365]	15.1 h	1,294 pmol/30 mm^2 zone	26.3 h	0.03 µg/mL	15.26 µg/mL	1.25 µg/mL	C. albicans pmol/30 mm^2 zone ([2]; listed as XMP.365P′): 489 pmol/30 mm^2 zone
CC[C@@H](C)[C@@H](NC(=O)[C@@H](CC(C)C)NC(=O)[C@@H](Cc1c[nH]c2ccccc12)NC(=O)[C@@H](CCCCN)NC(C)=O)C(=O)N[C@H](CCC(N)=O)C(=O)N[C@H](CC(C)C)C(=O)N[C@H](Cc1ccccc1)C(=O)N[C@H](Cc1c[nH]cn1)C(=O)N[C@H](CCCCN)C(=O)N[C@H](CCCCN)C(N)=O [XMP.366]	11.7 h	725 pmol/30 mm^2 zone	14 h	0.47 µg/mL	21.00 µg/mL	3.03 µg/mL	
CC[C@@H](C)[C@@H](NC(=O)[C@@H](CCC(N)=O)NC(=O)[C@@H](CC(C)C)NC(=O)[C@@H](Cc1ccccc1)NC(=O)[C@@H](Cc1c[nH]cn1)NC(=O)[C@@H](CCCCN)NC(=O)[C@H](N)CCCCN)C(=O)N[C@H](CC(C)C)C(=O)N[C@H](Cc1c[nH]c2ccccc12)C(=O)N[C@H](CCCCN)C(N)=O [XMP.367]		4,641 pmol/30 mm^2 zone	52.4 h	0.05 µg/mL	20.00 µg/mL	1.25 µg/mL	C. albicans pmol/30 mm^2 zone ([2]; listed as XMP.367′): 1,108 pmol/30 mm^2 zone
CC[C@H](C)[C@H](NC(=O)[C@H](CC(C)C)NC(=O)[C@H](Cc1c[nH]c2ccccc12)NC(=O)[C@H](CCCCN)NC(C)=O)C(=O)N[C@@H](CCC(N)=O)C(=O)N[C@@H](CC(C)C)C(=O)N[C@@H](Cc1ccccc1)C(=O)N[C@@H](Cc1c[nH]cn1)C(=O)N[C@@H](CCCCN)C(=O)N[C@@H](CCCCN)C(N)=O [XMP.373]	1.8 h	298 pmol/30 mm^2 zone	2.6 h	0.87 µg/mL	4.96 µg/mL	1.11 µg/mL	
CC[C@H](C)[C@H](NC(=O)[C@H](CC(C)C)NC(=O)[C@H](Cc1c[nH]c2ccccc12)NC(=O)CNC(=O)[C@@H](N)CCCCN)C(=O)N[C@@H](CCC(N)=O)C(=O)N[C@@H](CC(C)C)C(=O)N[C@@H](Cc1ccccc1)C(=O)N[C@@H](Cc1c[nH]cn1)C(=O)N[C@@H](CCCCN)C(=O)N[C@@H](CCCCN)C(N)=O [XMP.389]	1.6 h	206 pmol/30 mm^2 zone	1.3 h	0.25 µg/mL	4.64 µg/mL	2.26 µg/mL	
